The data set in a line: Octanol-water distribution coefficient, log D of the compound at pH 7.4 at 100 ug/mL. It is filed as physicochemical.

The structures appear in SMILES notation.

The logD is lipophilicity at a set pH, counting ionised and neutral species. Low readings indicate a more hydrophilic compound, high ones a more lipophilic compound. On to `CCOC(=O)C1=C[C@@H](OC(CC)CC)[C@H](NC(C)=O)[C@@H](N)C1` [OSELTAMIVIR], for which the logD was determined as 0.36.

These data come from ChEMBL document CHEMBL1811835, “Intramolecular ion-pair prodrugs of zanamivir and guanidino-oseltamivir” (Bioorg Med Chem, 2011).
